Reference: paper PMC12102759 (Protein Science : A Publication of the Protein Society, 2025)

The sequences below were run on AP2M1 MU.
Type: binding, human

Going from “VSDIDYVPLKSATAIT K10H (VSDIDYVPLHSATAIT)” to “VSDIDYVPLKSATAIT K10I (VSDIDYVPLISATAIT)”, the “PSSM value of the substitution (DMS by phage display)” value (“PSSM value of the substitution” for short) rises from 0 to 0.0001199.

Going from VSDIDYVPLKSATAIT K10K to “VSDIDYVPLKSATAIT K10L (VSDIDYVPLLSATAIT)”, the “PSSM value of the substitution” value rises from 0.000843 to 0.003198.

First: VSDIDYVPLKSATAIT K10M (VSDIDYVPLMSATAIT)
Second: VSDIDYVPLKSATAIT K10N (VSDIDYVPLNSATAIT)
The “PSSM value of the substitution” value of the first is lower: 0.1033 for the first, 0.254 for the second.

“VSDIDYVPLKSATAIT K10P (VSDIDYVPLPSATAIT)” and “VSDIDYVPLKSATAIT K10Q (VSDIDYVPLQSATAIT)” are the same in “PSSM value of the substitution” value: 0 for the first, 0 for the second.

Going from “VSDIDYVPLKSATAIT K10R (VSDIDYVPLRSATAIT)” to “VSDIDYVPLKSATAIT K10S (VSDIDYVPLSSATAIT)”, the “PSSM value of the substitution” value rises from 0.02159 to 0.02255.

First: VSDIDYVPLKSATAIT K10T (VSDIDYVPLTSATAIT)
Second: VSDIDYVPLKSATAIT K10V (VSDIDYVPLVSATAIT)
The “PSSM value of the substitution” value of the first is lower: 0 for the first, 0.0002426 for the second.

Going from “VSDIDYVPLKSATAIT K10W (VSDIDYVPLWSATAIT)” to “VSDIDYVPLKSATAIT K10Y (VSDIDYVPLYSATAIT)”, the “PSSM value of the substitution” value rises from 0 to 0.02179.

VSDIDYVPLKSATAIT L9A (VSDIDYVPAKSATAIT) and VSDIDYVPLKSATAIT L9D (VSDIDYVPDKSATAIT) are the same in “PSSM value of the substitution” value: 0 for the first, 0 for the second.

VSDIDYVPLKSATAIT L9E (VSDIDYVPEKSATAIT) and VSDIDYVPLKSATAIT L9F (VSDIDYVPFKSATAIT) are the same in “PSSM value of the substitution” value: 0 for the first, 0 for the second.

VSDIDYVPLKSATAIT L9G (VSDIDYVPGKSATAIT) and VSDIDYVPLKSATAIT L9H (VSDIDYVPHKSATAIT) are the same in “PSSM value of the substitution” value: 0 for the first, 0 for the second.

Compared with VSDIDYVPLKSATAIT L9I (VSDIDYVPIKSATAIT), VSDIDYVPLKSATAIT L9K (VSDIDYVPKKSATAIT) is lower in “PSSM value of the substitution” value: 0.132 for the first, 0 for the second.

Compared with VSDIDYVPLKSATAIT L9L, VSDIDYVPLKSATAIT L9M (VSDIDYVPMKSATAIT) is lower in “PSSM value of the substitution” value: 0.4588 for the first, 0 for the second.

VSDIDYVPLKSATAIT L9N (VSDIDYVPNKSATAIT) and VSDIDYVPLKSATAIT L9P (VSDIDYVPPKSATAIT) are the same in “PSSM value of the substitution” value: 0 for the first, 0 for the second.

VSDIDYVPLKSATAIT L9Q (VSDIDYVPQKSATAIT) and VSDIDYVPLKSATAIT L9R (VSDIDYVPRKSATAIT) are the same in “PSSM value of the substitution” value: 0 for the first, 0 for the second.

VSDIDYVPLKSATAIT L9S (VSDIDYVPSKSATAIT) and VSDIDYVPLKSATAIT L9T (VSDIDYVPTKSATAIT) are the same in “PSSM value of the substitution” value: 0 for the first, 0 for the second.

Compared with VSDIDYVPLKSATAIT L9V (VSDIDYVPVKSATAIT), VSDIDYVPLKSATAIT L9W (VSDIDYVPWKSATAIT) is higher in “PSSM value of the substitution” value: 0.06522 for the first, 0.344 for the second.

VSDIDYVPLKSATAIT L9Y (VSDIDYVPYKSATAIT) and VSDIDYVPLKSATAIT P8A (VSDIDYVALKSATAIT) are the same in “PSSM value of the substitution” value: 0 for the first, 0 for the second.

Compared with VSDIDYVPLKSATAIT P8D (VSDIDYVDLKSATAIT), VSDIDYVPLKSATAIT P8E (VSDIDYVELKSATAIT) is higher in “PSSM value of the substitution” value: 0.001823 for the first, 0.9723 for the second.

VSDIDYVPLKSATAIT P8F (VSDIDYVFLKSATAIT) and VSDIDYVPLKSATAIT P8G (VSDIDYVGLKSATAIT) are the same in “PSSM value of the substitution” value: 0 for the first, 0 for the second.

VSDIDYVPLKSATAIT P8H (VSDIDYVHLKSATAIT) and VSDIDYVPLKSATAIT P8I (VSDIDYVILKSATAIT) are the same in “PSSM value of the substitution” value: 0 for the first, 0 for the second.

First: VSDIDYVPLKSATAIT P8K (VSDIDYVKLKSATAIT)
Second: VSDIDYVPLKSATAIT P8L (VSDIDYVLLKSATAIT)
The “PSSM value of the substitution” value of the first is higher: 0.001823 for the first, 0 for the second.

VSDIDYVPLKSATAIT P8M (VSDIDYVMLKSATAIT) and VSDIDYVPLKSATAIT P8N (VSDIDYVNLKSATAIT) are the same in “PSSM value of the substitution” value: 0 for the first, 0 for the second.

First: VSDIDYVPLKSATAIT P8P
Second: VSDIDYVPLKSATAIT P8Q (VSDIDYVQLKSATAIT)
The “PSSM value of the substitution” value of the first is higher: 0.005012 for the first, 0 for the second.

VSDIDYVPLKSATAIT P8R (VSDIDYVRLKSATAIT) and VSDIDYVPLKSATAIT P8S (VSDIDYVSLKSATAIT) are the same in “PSSM value of the substitution” value: 0 for the first, 0 for the second.

Going from VSDIDYVPLKSATAIT P8T (VSDIDYVTLKSATAIT) to VSDIDYVPLKSATAIT P8V (VSDIDYVVLKSATAIT), the “PSSM value of the substitution” value rises from 0 to 0.01908.

VSDIDYVPLKSATAIT P8W (VSDIDYVWLKSATAIT) and VSDIDYVPLKSATAIT P8Y (VSDIDYVYLKSATAIT) are the same in “PSSM value of the substitution” value: 0 for the first, 0 for the second.

Compared with VSDIDYVPLKSATAIT S2A (VADIDYVPLKSATAIT), VSDIDYVPLKSATAIT S2D (VDDIDYVPLKSATAIT) is lower in “PSSM value of the substitution” value: 0.003011 for the first, 0 for the second.

First: VSDIDYVPLKSATAIT S2E (VEDIDYVPLKSATAIT)
Second: VSDIDYVPLKSATAIT S2F (VFDIDYVPLKSATAIT)
The “PSSM value of the substitution” value of the first is lower: 0 for the first, 0.06382 for the second.

Compared with VSDIDYVPLKSATAIT S2G (VGDIDYVPLKSATAIT), VSDIDYVPLKSATAIT S2H (VHDIDYVPLKSATAIT) is lower in “PSSM value of the substitution” value: 0.0003628 for the first, 0 for the second.

Compared with VSDIDYVPLKSATAIT S2I (VIDIDYVPLKSATAIT), VSDIDYVPLKSATAIT S2K (VKDIDYVPLKSATAIT) is higher in “PSSM value of the substitution” value: 0.001097 for the first, 0.00599 for the second.

First: VSDIDYVPLKSATAIT S2L (VLDIDYVPLKSATAIT)
Second: VSDIDYVPLKSATAIT S2M (VMDIDYVPLKSATAIT)
The “PSSM value of the substitution” value of the first is lower: 0.004479 for the first, 0.007032 for the second.

Going from VSDIDYVPLKSATAIT S2N (VNDIDYVPLKSATAIT) to VSDIDYVPLKSATAIT S2P (VPDIDYVPLKSATAIT), the “PSSM value of the substitution” value rises from 0 to 0.09109.

Compared with VSDIDYVPLKSATAIT S2Q (VQDIDYVPLKSATAIT), VSDIDYVPLKSATAIT S2R (VRDIDYVPLKSATAIT) is higher in “PSSM value of the substitution” value: 0.006565 for the first, 0.8051 for the second.

Going from VSDIDYVPLKSATAIT S2S to VSDIDYVPLKSATAIT S2T (VTDIDYVPLKSATAIT), the “PSSM value of the substitution” value rises from 0.002552 to 0.005684.

Compared with VSDIDYVPLKSATAIT S2V (VVDIDYVPLKSATAIT), VSDIDYVPLKSATAIT S2W (VWDIDYVPLKSATAIT) is higher in “PSSM value of the substitution” value: 0 for the first, 0.001291 for the second.
